Data from patent US12544370B2, “Methods for cancer therapy” (ASCENTAGE PHARMA (SUZHOU) CO., LTD., priority 2018, dated 2026).

Tested on: patients with chronic phase (CP/CML-CP) or accelerated phase (AP/CML-AP) CML resistant to or intolerant of ≥2 prior TKIs or with BCR-ABL T315I
Assay: Phase 1 trial in resistant CML, further safety (Example 2)
Settings: Example 2, Table 3; treatment related AE, treated population 101

Cc1ccc(C(=O)Nc2ccc(CN3CCN(C)CC3)c(C(F)(F)F)c2)cc1C#Cc1cnc2[nH]ncc2c1 [3-(2-(1H-pyrazolo[3,4-b]pyridin-5-yl)ethynyl)-4-methyl-N-(4-((4-methylpiperazin-1-yl)methyl)-3-(trifluoromethyl)phenyl)-benzamide]
21 (20.8%) n(%): Hyperglycaemia, Any Grade | Myalgia, Any Grade | leukopenia, Any Grade
